Source: PubChem BioAssay AID504606 (National Center for Advancing Translational Sciences (NCATS), 2011)
Converted amounts (≈) assume the structure as drawn.

Test system: kinetic aqueous solubility, PBS pH 7.4, LC-UV/MS
Assay: Inhibitors of HPGD: Aqueous Solubility Profiling
Details: active compounds read high

N#Cc1ccccc1CSc1nc2ncc(Br)cc2[nH]1
solubility: 3 µM (≈ 1.04 µg/mL)
